# Experimental data as given in US11426393B2, “Prolyl hydroxylase inhibitors and methods of use” (Akebia Therapeutics, Inc., priority 2006, dated 2022).
# Tested on: VEGF
# Experiment: VEGF ELISA assay
# Format: cell-based
# Conditions: Homo sapiens, HEK293, read-out: VEGF EC50 μM
# Description: HEK293 cells are seeded in 96-well poly-lysine coated plates at 20,000 ceils per well in DMEM (10% FBS, 1% NEAA, 0.1% glutamine). Following overnight incubation, the cells are washed with 100 uL of Opti-MEM (Gibco, Carlsbad, Calif.) to remove serum. Compound in DMSO is serially diluted (beginning with 100 μM) in Qpti-MEM and added to the cells. The conditioned media is analyzed for VEGF with a Quantikine human VEGF immunoassay kit (R&D Systems, Minneapolis, Minn.). Optical density measurements at 450 nm are recorded using the Spectra Max 250 (Molecular Devices, Sunnyvale, Calif.). Data defined as % of DFO stimulation is used to calculate EC50 values with GraphPad Prism 4 software (San Diego, Calif.).
smiles,measurement,value
O=C(O)CNC(=O)c1ncc(-c2ccc(F)cc2)cc1O,EC50,> 100 µM
